# Binding of CDR-mutated scFvs to a peptide of the spike HR2 region

Source: Engelhart et al. 2022 (doi:10.1038/s41597-022-01779-4), MIT Lincoln Laboratory and A-Alpha Bio; data file from the FLAb repository.

Antigen: PDVDLGDISGINAS, a 14-residue peptide of the SARS-CoV-2 spike HR2 region.

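Phage display of a naive human antibody library on the peptide gave the parent. Library AAYL49 holds single substitutions and randomly drawn double and triple substitutions in the CDRs. AlphaSeq pools MATa yeast showing the antibodies with MATalpha yeast showing the peptide. Binding brings cells together so that they mate, and sequencing counts the barcode pairs among the diploids. The ratio of observed to expected reads was calibrated, replicate by replicate, on BCL2-family standards whose Kd was known from biolayer interferometry. There are three technical replicates.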

Parent scFv Ab-14: VH joined to VL by a 15-residue (Gly4Ser)3 linker. Changes lie in the heavy chain CDRs alone.
VH: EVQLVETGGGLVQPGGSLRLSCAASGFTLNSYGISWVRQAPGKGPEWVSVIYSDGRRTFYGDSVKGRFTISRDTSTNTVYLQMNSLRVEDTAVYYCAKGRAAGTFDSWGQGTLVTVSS
VL: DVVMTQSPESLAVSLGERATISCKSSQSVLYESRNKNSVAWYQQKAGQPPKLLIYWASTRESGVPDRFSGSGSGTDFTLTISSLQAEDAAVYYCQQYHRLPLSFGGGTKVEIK

Changes read parent residue, position, new residue, counted from the first residue of the VH shown. Every variant below is changed at V64 of the VH (sequential numbering). Scale: log10 of Kd in nM, estimated from mating counts; low values are strong binders. Averages over replicates are reported, and they cover detected replicates only. A pair that was not seen in any replicate is written "nd"; this usually means weak binding, but a binder can also be missed. Background: pairings of library AAYL49 with three empty control strains gave a value in 15% of cases (median 4.06, 5th percentile 2.83). Values in that range, when seen in few replicates, are hard to tell from nonspecific mating. In this assay the parent's reference entry averaged 0.65; its copy inside this library read 4.11 (one replicate of three).

changes	mean log10 Kd (nM)	detected
T28Q/V64C/F105W	nd	0 of 3
G55E/V64S/D106L	3.39	1 of 3
V64F/S107L	0.49	3 of 3
S53G/V64H/K65N	5.98	1 of 3
T58W/Y60D/V64D	4.27	2 of 3
I51L/V64G/A102S	4.92	2 of 3
F59Q/Y60P/V64E	nd	0 of 3
N30A/S31C/V64T	3.53	1 of 3
V50K/V64F/A102R	nd	0 of 3
Y52F/D62Q/V64D	3.91	1 of 3
Y32H/G33D/V64L	5.98	1 of 3
G33A/V50A/V64I	4.49	2 of 3
T58G/V64C/D106I	nd	0 of 3
V64G/D106K	5.65	3 of 3
I51E/V64D/D106N	3.85	1 of 3
T28S/G61E/V64K	nd	0 of 3
Y52D/V64M/G99F	nd	0 of 3
D62R/V64Y	4.98	2 of 3
G26M/V64E/A101F	5.24	1 of 3
N30A/S53I/V64H	nd	0 of 3
R56E/V64L/K65Q	3.64	3 of 3
V50N/V64D/T104L	nd	0 of 3
I34L/V64R	5.35	1 of 3
S31A/V64R/R100P	nd	0 of 3
S35N/V64L/G99R	nd	0 of 3
N30C/Y52L/V64E	nd	0 of 3
S53F/V64D	2.72	1 of 3
R56Q/V64H/G99H	2.79	1 of 3
V64R	nd	0 of 3
T28E/V64F/A101P	3.07	3 of 3
Y52G/G55V/V64L	3.21	1 of 3
R57L/V64Q/F105S	nd	0 of 3
V64P/R100Y/D106C	4.33	1 of 3
Y52D/V64C	5.36	2 of 3
Y52S/V64Q/G103V	1.73	3 of 3
L29G/G55N/V64R	4.72	2 of 3
F59E/V64R/D106Q	nd	0 of 3
S31L/V64C	3.15	2 of 3
L29W/V50D/V64G	3.29	1 of 3
S31V/Y52L/V64R	4.21	1 of 3
R56A/V64I/R100W	2.52	3 of 3
S31G/V64H	nd	0 of 3
V50Y/G61Y/V64K	nd	0 of 3
T58E/V64S/T104L	3.35	1 of 3
V64A/D106E/S107N	nd	0 of 3
V64N	nd	0 of 3
F59E/S63Q/V64N	3.89	2 of 3
S31W/V64P/D106T	nd	0 of 3
V64N/A102S	nd	0 of 3
T28P/I34L/V64T	nd	0 of 3
T58N/V64H	nd	0 of 3
G33N/D62T/V64D	nd	0 of 3
I51G/V64T/D106E	3.72	1 of 3
T28W/V64H	4.23	2 of 3
L29E/V64W/A102H	4.91	1 of 3
N30W/G61E/V64D	4.77	1 of 3
N30A/T58S/V64T	4.00	1 of 3
Y32T/V64I	2.89	3 of 3
G55L/V64H/D106Q	nd	0 of 3
N30P/Y60Q/V64T	nd	0 of 3
D62M/V64S/A101W	nd	0 of 3
Y32H/V64S/S107P	3.49	2 of 3
R56G/G61D/V64I	3.04	3 of 3
Y32S/R57A/V64L	nd	0 of 3
T58P/V64Q	nd	0 of 3
T28L/I51E/V64R	5.11	1 of 3
S63A/V64F/D106Y	nd	0 of 3

A selection of 5 entries from above:

{"changes": "T28L/I51E/V64R", "mean log10 Kd (nM)": "5.11", "detected": "1 of 3"}
{"changes": "Y52D/V64C", "mean log10 Kd (nM)": "5.36", "detected": "2 of 3"}
{"changes": "N30W/G61E/V64D", "mean log10 Kd (nM)": "4.77", "detected": "1 of 3"}
{"changes": "Y32T/V64I", "mean log10 Kd (nM)": "2.89", "detected": "3 of 3"}
{"changes": "T58G/V64C/D106I", "mean log10 Kd (nM)": "nd", "detected": "0 of 3"}